In ChEMBL document CHEMBL1133089 (J Med Chem, 2000):
Values joined by “and” are separate entries in the source; they are usually repeats but may differ in a detail not shown here. Equal entries are not always repeated.

Protein sequences, listed by entry. Tags and fused reporters are not part of them. Residues count along the entry.
UniProt Q05941, 23-502 limits assumed: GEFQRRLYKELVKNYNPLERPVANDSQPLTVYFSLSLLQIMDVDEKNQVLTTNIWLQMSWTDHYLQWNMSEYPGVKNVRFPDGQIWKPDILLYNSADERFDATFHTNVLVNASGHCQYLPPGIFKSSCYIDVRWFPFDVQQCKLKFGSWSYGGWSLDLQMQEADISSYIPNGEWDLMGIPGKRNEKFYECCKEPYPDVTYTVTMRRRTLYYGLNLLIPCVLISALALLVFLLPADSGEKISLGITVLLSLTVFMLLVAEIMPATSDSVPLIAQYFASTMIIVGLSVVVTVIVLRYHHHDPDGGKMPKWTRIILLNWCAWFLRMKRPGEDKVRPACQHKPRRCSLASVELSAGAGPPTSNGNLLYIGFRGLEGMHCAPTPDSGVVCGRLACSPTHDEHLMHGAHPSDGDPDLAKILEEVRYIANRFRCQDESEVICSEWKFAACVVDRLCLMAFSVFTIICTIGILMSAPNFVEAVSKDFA
UniProt P09483, 31-630 limits assumed: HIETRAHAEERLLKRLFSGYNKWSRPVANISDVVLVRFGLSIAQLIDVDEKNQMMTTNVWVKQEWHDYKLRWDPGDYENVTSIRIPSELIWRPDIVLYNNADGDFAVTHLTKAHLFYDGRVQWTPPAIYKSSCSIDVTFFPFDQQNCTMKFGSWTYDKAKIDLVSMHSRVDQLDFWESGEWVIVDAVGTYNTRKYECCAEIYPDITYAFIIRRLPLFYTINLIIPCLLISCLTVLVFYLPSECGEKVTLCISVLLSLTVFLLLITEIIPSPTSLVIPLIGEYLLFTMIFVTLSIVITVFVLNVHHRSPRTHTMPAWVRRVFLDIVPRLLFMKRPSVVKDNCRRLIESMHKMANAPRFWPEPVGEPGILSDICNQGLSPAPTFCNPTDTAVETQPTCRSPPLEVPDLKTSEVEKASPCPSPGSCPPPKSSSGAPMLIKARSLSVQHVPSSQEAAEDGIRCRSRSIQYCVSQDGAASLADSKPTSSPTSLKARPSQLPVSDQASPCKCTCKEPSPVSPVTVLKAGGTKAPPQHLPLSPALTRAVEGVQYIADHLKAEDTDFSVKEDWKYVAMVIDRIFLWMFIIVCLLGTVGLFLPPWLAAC
UniProt P12390, 25-500 limits assumed: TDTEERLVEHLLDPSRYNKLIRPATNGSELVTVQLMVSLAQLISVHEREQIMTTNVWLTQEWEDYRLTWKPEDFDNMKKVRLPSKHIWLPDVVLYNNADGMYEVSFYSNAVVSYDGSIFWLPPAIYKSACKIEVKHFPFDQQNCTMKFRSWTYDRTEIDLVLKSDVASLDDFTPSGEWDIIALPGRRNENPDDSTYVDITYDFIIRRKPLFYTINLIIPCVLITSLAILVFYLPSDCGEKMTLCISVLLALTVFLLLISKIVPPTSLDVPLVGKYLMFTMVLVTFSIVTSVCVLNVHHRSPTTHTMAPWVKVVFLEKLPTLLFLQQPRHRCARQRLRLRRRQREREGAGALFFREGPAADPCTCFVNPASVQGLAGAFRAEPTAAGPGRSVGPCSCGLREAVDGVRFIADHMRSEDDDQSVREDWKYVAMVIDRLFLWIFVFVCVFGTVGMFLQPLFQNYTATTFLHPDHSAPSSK

Legend:
[1] = target: T1, Neuronal acetylcholine receptor subunit alpha-7 (Rattus norvegicus, UniProt Q05941); assay: Binding affinity in rat hippocampi against Nicotinic acetylcholine receptor alpha7; conditions: Hippocampus
[2] = target: T2, Neuronal acetylcholine receptor; alpha4/beta2 (Rattus norvegicus, UniProt P09483+P12390); assay: binding affinity in rat forebrain against alpha4-beta2 nicotinic receptor
[3] = target: T2, Neuronal acetylcholine receptor; alpha4/beta2
[4] = target: T1, Neuronal acetylcholine receptor subunit alpha-7; conditions: Hippocampus
[5] = target: T2, Neuronal acetylcholine receptor; alpha4/beta2; assay: Binding affinity in rat forebrain against Nicotinic acetylcholine receptor alpha4-beta2

Compound `O=C1CCC2(CN3CCC2CC3)O1` (stereo unspecified) has a Ki [1] of 3.7 µM.
In the case of `CN1CC2(CN3CCC2CC3)OC1=O` (stereo unspecified), the Ki [2] is reported as 0.45 µM and 0.2 µM and the Ki [3] is reported as 24 µM.
Compound `O=C1NCCC2(CN3CCC2CC3)O1` (stereo unspecified) has a Ki [4] of 23 µM.
For `O=C1OCC2(CN3CCC2CC3)O1` (stereo unspecified), the Ki [1] was 0.56 µM and the Ki [5] was 2.2 µM.
